Reference: patent US20240360179A1, “STAPLED PEPTIDES AND METHODS THEREOF” (FOG PHARMACEUTICALS, INC., priority 2021, published 2024)

Chains of the proteins cited; added tags and fusions are not shown.
UniProt P35222, whole entry: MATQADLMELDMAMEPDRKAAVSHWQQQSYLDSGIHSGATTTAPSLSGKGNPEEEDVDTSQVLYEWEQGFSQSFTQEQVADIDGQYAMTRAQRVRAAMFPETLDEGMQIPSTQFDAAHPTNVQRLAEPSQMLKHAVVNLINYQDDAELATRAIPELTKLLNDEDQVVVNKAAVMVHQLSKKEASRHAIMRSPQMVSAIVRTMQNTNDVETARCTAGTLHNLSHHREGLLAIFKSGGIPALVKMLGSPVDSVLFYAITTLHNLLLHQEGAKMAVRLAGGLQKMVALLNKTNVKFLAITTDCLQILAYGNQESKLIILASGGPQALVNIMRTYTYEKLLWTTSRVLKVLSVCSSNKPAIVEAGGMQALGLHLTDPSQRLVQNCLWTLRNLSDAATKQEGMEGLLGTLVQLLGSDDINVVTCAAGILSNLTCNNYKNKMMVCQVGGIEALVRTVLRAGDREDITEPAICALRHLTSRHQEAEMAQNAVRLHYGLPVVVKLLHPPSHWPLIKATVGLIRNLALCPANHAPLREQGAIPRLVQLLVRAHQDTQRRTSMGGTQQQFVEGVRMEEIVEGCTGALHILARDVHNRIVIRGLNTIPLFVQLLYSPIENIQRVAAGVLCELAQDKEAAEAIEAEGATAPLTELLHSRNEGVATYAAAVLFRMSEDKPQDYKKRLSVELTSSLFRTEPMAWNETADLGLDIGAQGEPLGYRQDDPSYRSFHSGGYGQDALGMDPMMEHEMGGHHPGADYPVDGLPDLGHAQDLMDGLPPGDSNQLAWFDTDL

Assays:
[1] = biological target: beta-catenin/TCF4 interaction (Homo sapiens, UniProt P35222); test: cell-based; parameters: host or cells: HEK293; settings: NanoBRET Abs IC50 (uM)
[2] = biological target: T1, full-length B-Catenin (Uniprot ID P35222) (Homo sapiens, UniProt P35222); test: biochemical; format: binding; settings: beta-Catenin FP IC50 (nM), competition fluorescence polarization
T1 construct: 10 nM full-length B-Catenin (Uniprot ID P35222)

| SMILES | IC50 [1] [µM] | IC50 [2] [nM] | IC50 ([1]; absolute IC50) [µM] |
| --- | --- | --- | --- |
| CC(=O)N1CCC[C@]12CC=CCCCC1(CCCC=CCCCOC(=O)N3CC[C@@]4(C3)NC(=O)[C@H](CCCCN(C(C)C)C(=O)CC[C@@H](C(=O)N[C@@H](C)C(N)=O)NC(=O)[C@H](Cc3csc5ccccc35)NC(=O)[C@H](Cc3ccccc3C(F)(F)F)NC4=O)NC(=O)[C@H](Cc3ccccc3)NC(=O)[C@H](C)NC(=O)[C@H](C)NC(=O)[C@H](Cc3cccc(C(=O)O)c3)NC(=O)[C@H](CC(=O)O)NC1=O)NC(=O)[C@H](CC(C)(C)C)NC(=O)[C@H](CC(=O)O)NC2=O (relative stereo) [I-191, Ac-PL3-Asp-Npg-B5-Asp-3COOHF-Ala-Ala-Phe-iPrLys*3-PyrS2-2F3MeF-BztA-GlnR*3-Ala-NH2] | 3 to 10 | 50 to 200 | – |
| CC[C@H](C)[C@@H]1NC(=O)[C@H](CC(=O)O)NC(=O)[C@]2(CC=CCCCC3(CCCC=CCCCOC(=O)N4CC[C@@]5(C4)NC(=O)[C@H](CCCCNC(=O)CC[C@@H](C(=O)N[C@@H](C)C(N)=O)NC(=O)[C@H](Cc4csc6ccccc46)NC(=O)[C@H](Cc4ccsc4)NC5=O)NC(=O)[C@H](Cc4ccccc4)NC(=O)[C@H](C)NC(=O)C(C)(C)NC(=O)[C@H](Cc4cccc(C(=O)O)c4)NC(=O)[C@H](CC(=O)O)NC3=O)NC1=O)CCCN2C(C)=O (single isomer, unassigned) [I-247, Ac-PL3-Asp-Ile-B5-Asp-3COOHF-Aib-Ala-Phe-Lys*3-PyrS2-3Thi-BztA-GlnR*3-Ala-NH2] | 1.5 to 3 | < 50 | – |
| CC(=O)N1CCC[C@]12CC=CCCCC1(CCCC=CCCCOC(=O)N3CC[C@@]4(C3)NC(=O)[C@H](CCCCNC(=O)CC[C@@H](C(=O)N[C@@H](C)C(N)=O)NC(=O)[C@H](Cc3csc5ccccc35)NC(=O)[C@H](Cc3cccnc3)NC4=O)NC(=O)[C@H](Cc3ccccc3)NC(=O)[C@H](C)NC(=O)C(C)(C)NC(=O)[C@H](Cc3cccc(C(=O)O)c3)NC(=O)[C@H](CC(=O)O)NC1=O)NC(=O)[C@H](CC(C)(C)C)NC(=O)[C@H](CC(=O)O)NC2=O (relative stereo) [I-300, Ac-PL3-Asp-Npg-B5-Asp-3COOHF-Aib-Ala-Phe-Lys*3-PyrS2-3PyrA-BztA-GlnR*3-Ala-NH2] | 3 to 10 | < 50 | – |
| CC(=O)N1CCC[C@]12CC=CCCCC1(CCCC=CCCCOC(=O)N3CC[C@@]4(C3)NC(=O)[C@H](CCCCNC(=O)CC[C@@H](C(N)=O)NC(=O)[C@H](Cc3csc5ccccc35)NC(=O)[C@H](Cc3ccccc3C(F)(F)F)NC4=O)NC(=O)[C@H](Cc3ccccc3)NC(=O)[C@H](C)NC(=O)[C@H](C)NC(=O)[C@H](Cc3cccc(C(=O)O)c3)NC(=O)[C@H](CC(=O)O)NC1=O)NC(=O)[C@H](CC(C)(C)C)NC(=O)[C@H](CC(=O)O)NC2=O (relative stereo) [I-55, Ac-PL3-Asp-Npg-B5-Asp-3COOHF-Ala-Ala-Phe-Lys*3-PyrS2-2F3MeF-BztA-GlnR*3-NH2] | 1.5 to 3 | < 50 | – |
| CC(=O)N1CCC[C@]12CC=CCCCC1(CCCC=CCCCOC(=O)N3CC[C@@]4(C3)NC(=O)[C@H](CCCCNC(=O)CC[C@@H](C(=O)N[C@@H](C)C(N)=O)NC(=O)[C@H](Cc3csc5ccccc35)NC(=O)[C@H](Cc3ccsc3)NC4=O)NC(=O)[C@H](Cc3ccccc3)NC(=O)[C@H](C)NC(=O)C(C)(C)NC(=O)[C@H](Cc3cccc(C(=O)O)c3)NC(=O)[C@H](CC(=O)O)NC1=O)NC(=O)[C@H](Cc1ccccc1)NC(=O)[C@H](CC(=O)O)NC2=O (relative stereo) [I-249, Ac-PL3-Asp-Phe-B5-Asp-3COOHF-Aib-Ala-Phe-Lys*3-PyrS2-3Thi-BztA-GlnR*3-Ala-NH2] | 3 to 10 | < 50 | – |
| CC(=O)N1CCC[C@]12CC=CCCCC1(CCCC=CCCCOC(=O)N3CC[C@@]4(C3)NC(=O)[C@H](CCCn3cc(nn3)CC[C@@H](C(=O)N[C@@H](C)C(N)=O)NC(=O)[C@H](Cc3csc5ccccc35)NC(=O)[C@H](Cc3ccsc3)NC4=O)NC(=O)[C@H](Cc3ccccc3)NC(=O)[C@H](C)NC(=O)C(C)(C)NC(=O)[C@H](Cc3cccc(C(=O)O)c3)NC(=O)[C@H](CC(=O)O)NC1=O)NC(=O)[C@H](CC(C)(C)C)NC(=O)[C@H](CC(=O)O)NC2=O (stereo partly drawn) [I-423, Ac-PL3-Asp-Npg-B5-Asp-3COOHF-Aib-Ala-Phe-TriAzOrn*3-PyrS2-3Thi-BztA-sAbu*3-Ala-NH2] | – | < 50 | 3 to 10 |
| CC(=O)N1CCC[C@]12CC=CCCCC1(CCCC=CCCCOC(=O)N3CC[C@@]4(C3)NC(=O)[C@H](CCCCNC(=O)CC[C@@H](C(=O)N[C@@H](C)C(N)=O)NC(=O)[C@H](Cc3csc5ccccc35)NC(=O)[C@H](Cc3ccsc3)NC4=O)NC(=O)[C@H](Cc3ccccc3)NC(=O)[C@H](C)NC(=O)C(C)(C)NC(=O)[C@H](Cc3cccc(C(=O)O)c3)NC(=O)[C@H](CCC(=O)O)NC1=O)NC(=O)[C@H](CC(C)(C)C)NC(=O)[C@H](CCCC(=O)O)NC2=O (relative stereo) [I-549, Ac-PL3-Aad-Npg-B5-Glu-3COOHF-Aib-Ala-Phe-Lys*3-PyrS2-3Thi-BztA-GlnR*3-Ala-NH2] | – | > 1000 | > 10 |
| CC(=O)N1CCC[C@]12CC=CCCCC1(CCCC=CCCCOC(=O)N3CC[C@@]4(C3)NC(=O)[C@H](CCCCNC(=O)CC[C@@H](C(=O)N[C@@H](C)C(N)=O)NC(=O)[C@H](Cc3csc5ccccc35)NC(=O)[C@H](Cc3ccccc3C(F)(F)F)NC4=O)NC(=O)[C@H](Cc3ccccc3)NC(=O)[C@H](C)NC(=O)C(C)(C)NC(=O)[C@H](Cc3c[nH]cn3)NC(=O)[C@H](CC(=O)O)NC1=O)NC(=O)[C@H](CC(C)(C)C)NC(=O)[C@H](CC(=O)O)NC2=O (relative stereo) [I-202, Ac-PL3-Asp-Npg-B5-Asp-His-Aib-Ala-Phe-Lys*3-PyrS2-2F3MeF-BztA-GlnR*3-Ala-NH2] | > 10 | < 50 | – |
| CC(=O)N1CCC[C@]12CC=CCCCC1(CCCC=CCCCOC(=O)N3CC[C@@]4(C3)NC(=O)[C@H](CCCCNC(=O)CC[C@@H](C(=O)N[C@@H](C)C(N)=O)NC(=O)[C@H](Cc3csc5ccccc35)NC(=O)[C@H](Cc3ccsc3)NC4=O)NC(=O)[C@H](Cc3ccccc3)NC(=O)[C@H](C)NC(=O)C(C)(C)NC(=O)[C@H](Cc3cccc(C(=O)O)c3)NC(=O)[C@H](CCCC(=O)O)NC1=O)NC(=O)[C@H](CC(C)(C)C)NC(=O)[C@H](CC(=O)O)NC2=O (relative stereo) [I-548, Ac-PL3-Asp-Npg-B5-Aad-3COOHF-Aib-Ala-Phe-Lys*3-PyrS2-3Thi-BztA-GlnR*3-Ala-NH2] | – | 200 to 750 | > 10 |
| CC(=O)N1CCC[C@]12CC=CCCCC1(CCCC=CCCCOC(=O)N3CC[C@@]4(C3)NC(=O)[C@H](CCCn3cc(nn3)C[C@@H](C(=O)N[C@@H](C)C(N)=O)NC(=O)[C@H](Cc3csc5ccccc35)NC(=O)[C@H](Cc3ccccc3)NC4=O)NC(=O)[C@H](Cc3ccccc3)NC(=O)[C@H](C)NC(=O)C(C)(C)NC(=O)[C@H](Cc3cccc(C(=O)O)c3)NC(=O)[C@H](CC(=O)O)NC1=O)NC(=O)[C@H](CC(C)(C)C)NC(=O)[C@H](CC(=O)O)NC2=O (stereo partly drawn) [I-422, Ac-PL3-Asp-Npg-B5-Asp-3COOHF-Aib-Ala-Phe-TriAzOrn*3-PyrS2-Phe-BztA-sAla*3-Ala-NH2] | – | < 50 | > 10 |

Further lines, results first:

| IC50 [1] [µM] | IC50 [2] [nM] | IC50 ([1]; absolute IC50) [µM] | SMILES |
| --- | --- | --- | --- |
| 1.5 to 3 | < 50 | – | CC(=O)N1CCC[C@]12CC=CCCCC1(CCCC=CCCCOC(=O)N3CC[C@@]4(C3)NC(=O)[C@H](CCCCNC(=O)CC[C@@H](C(=O)N[C@@H](CC(C)C)C(N)=O)NC(=O)[C@H](Cc3csc5ccccc35)NC(=O)[C@H](Cc3ccccc3C(F)(F)F)NC4=O)NC(=O)[C@H](Cc3ccccc3)NC(=O)[C@H](C)NC(=O)[C@H](C)NC(=O)[C@H](Cc3cccc(C(=O)O)c3)NC(=O)[C@H](CC(=O)O)NC1=O)NC(=O)[C@H](CC1CCCCC1)NC(=O)[C@H](CC(=O)O)NC2=O (single isomer, unassigned) [I-106, Ac-PL3-Asp-Cha-B5-Asp-3COOHF-Ala-Ala-Phe-Lys*3-PyrS2-2F3MeF-BztA-GlnR*3-Leu-NH2] |
| 1.5 to 3 | < 50 | – | CC(=O)N1CCC[C@]12CC=CCCCC1(CCCC=CCCCOC(=O)N3CC[C@@]4(C3)NC(=O)[C@H](CCCCn3cc(nn3)COC[C@@H](C(=O)N[C@@H](C)C(N)=O)NC(=O)[C@H](Cc3csc5ccccc35)NC(=O)[C@H](Cc3ccsc3)NC4=O)NC(=O)[C@H](Cc3ccccc3)NC(=O)[C@H](C)NC(=O)C(C)(C)NC(=O)[C@H](Cc3cccc(C(=O)O)c3)NC(=O)[C@H](CC(=O)O)NC1=O)NC(=O)[C@H](CC(C)(C)C)NC(=O)[C@H](CC(=O)O)NC2=O (relative stereo) [I-262, Ac-PL3-Asp-Npg-B5-Asp-3COOHF-Aib-Ala-Phe-TriAzLys*3-PyrS2-3Thi-BztA-sCH2S*3-Ala-NH2] |
| 1.5 to 3 | < 50 | – | CC(=O)N1CCC[C@]12CC=CCCCC1(CCCC=CCCCOC(=O)N3CC[C@@]4(C3)NC(=O)[C@H](CCCCNC(=O)CC[C@@H](C(=O)N[C@@H](C)C(N)=O)NC(=O)[C@H](Cc3csc5ccccc35)NC(=O)[C@H](Cc3ccccc3C(F)(F)F)NC4=O)NC(=O)[C@H](Cc3ccccc3)NC(=O)[C@H](C)NC(=O)C(C)(C)NC(=O)[C@H](CN(CC(=O)O)CC(F)(F)F)NC(=O)[C@H](CC(=O)O)NC1=O)NC(=O)[C@H](CC(C)(C)C)NC(=O)[C@H](CC(=O)O)NC2=O (single isomer, unassigned) [I-120, Ac-PL3-Asp-Npg-B5-Asp-TfeGA-Aib-Ala-Phe-Lys*3-PyrS2-2F3MeF-BztA-GlnR*3-Ala-NH2] |
| – | < 50 | > 10 | CC(=O)N1CCC[C@]12CC=CCCCC1(CCCC=CCCCOC(=O)N3CC[C@@]4(C3)NC(=O)[C@H](CCCCNC(=O)CC[C@@H](C(=O)N[C@@H](C)C(N)=O)NC(=O)[C@H](Cc3csc5ccccc35)NC(=O)[C@H](Cc3ccsc3)NC4=O)NC(=O)[C@H](Cc3cccc4ccccc34)NC(=O)[C@H](C)NC(=O)C(C)(C)NC(=O)[C@H](Cc3cccc(C(=O)O)c3)NC(=O)[C@H](CC(=O)O)NC1=O)NC(=O)[C@H](CC(C)(C)C)NC(=O)[C@H](CC(=O)O)NC2=O (relative stereo) [I-356, Ac-PL3-Asp-Npg-B5-Asp-3COOHF-Aib-Ala-1NapA-Lys*3-PyrS2-3Thi-BztA-GlnR*3-Ala-NH2] |
